From PubChem
Sfp inh = blocks B. subtilis Sfp PPTase activity. 3.5% of 310,000 active. Biochemical Sfp PPTase activity, qHTS. Q9F4F7. Potency, µM, hits mostly inhibitors;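 further: the enzyme is Sfp with the accession as filed and its product quenches rhodamine fluorescence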
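After 15 min at room temperature with compound, 15 nM Sfp received 5 uM rhodamine-CoA plus 12.5 uM BHQ-2-ybbR (50 mM Hepes pH 7.6, 10 mM MgCl2). Rate came from the fluorescence difference over 30 min, ex 525/em 598 nm.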
G9a inh = G9a (human) methyltransferase inhibition; AID 504332; 8.8% of 350,000 active; Q96KQ7; G9a H3K9 monomethylation, AlphaScreen, 2 h; Potency, µM (top dose mostly 102 µM), most hits filed as inhibitors; further: nearly all actives have a fitted effect of over 75% in size
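Step 1: enzyme (final 20 nM) with compound, 15 min RT. Step 2: substrate peptide 500 nM and SAM 20 uM, 2 h RT. Step 3: anti-H3K9me1 antibody and AlphaScreen beads, 10 min, then plate read.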
LMNA splice mod = LMNA splicing modulation; Potency, µM (series often up to 46.1 µM), hits mostly inhibitors; 0.01% of 200,000 active; HeLa LMNA splicing GFP/RFP minigene ratio, 48 h; active means well fitted inhibition curve with a large enough effect in the signal ratio, with a control signal flat, not every such curve was filed as active; inconclusive means small, poorly fitted or top-dose-only effect, or effect the other way, or a change in a side signal; the % refers to the signal ratio
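Read-out is the ratio of GFP to DsRed2 object intensity, acquired by 488 nm laser-scanning cytometry on HeLa lamin A-EGFP minigene reporter cells. Compound incubation 48 hrs at 37 °C in Opti-MEM with 2% FBS; DMSO 0.5% final.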
miR-21 reporter = raises the signal of a miR-21 reporter | HeLa miR-21 FLuc reporter, luciferase, 48 h | Potency, µM (highest dose often 38.3 µM) | 340,000 tested, under 10 active | AID 2288; active = well fitted rising curve with a large enough effect; inconclusive = small, poorly fitted or top-dose-only effect; inactive = no such curve, though single readings can be large or run the other way;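 also: miR-21 action dims this reporter so a rising signal means less miR-21 action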
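HeLa cells stably expressing CMV-driven firefly luciferase with a downstream miR-21 binding sequence, endogenously expressing miR-21, were treated with titrations (up to about 40uM final) for 48 hours at 37 degree Celsius. Luciferase luminescence was read after lysis.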
JMJD2E inh = JMJD2E (human) inhibition; B2RXH2; JMJD2E catalytic domain, FDH-coupled NADH fluorescence (FDH is formaldehyde dehydrogenase); Potency, µM (series often up to 57.1 µM), most hits filed as inhibitors; 1.6% of 230,000 active; AID 2147; active means well fitted inhibition curve with a large enough effect, not every such curve was filed as active; inconclusive means small, poorly fitted or top-dose-only effect, or another doubt; inactive means no such curve, though single readings can be large or run the other way; further: nearly all actives have a fitted effect of over 50% in size
ALDH1A1 block = inhibitors of human aldehyde dehydrogenase 1A1; P00352; AID 1030; Purified ALDH1A1, NADH fluorescence, propionaldehyde substrate; Potency, µM (doses to about 75.3 µM), hits mostly inhibitors; 7.3% of 220,000 active; active means well fitted inhibition curve with a large enough effect, not every such curve was filed as active; inconclusive means small, poorly fitted or top-dose-only effect, or another doubt; inactive means no such curve, though single readings can be large or run the other way
A number is an active result; n = inactive; u = inconclusive; x = not tested or not shown; [ ] = dose if it differs, or a comment. In the library only some 13% were active in any assay of this set; here they are far more common. Unless noted, the call rests on the fitted dose curve; in most records, active means well fitted curve in the direction sought with a large enough effect; inconclusive means small, poorly fitted or top-dose-only effect, or another doubt; inactive means no such curve, though single readings can be large; an effect the other way counts as inactive or inconclusive.

SMILES | Sfp inh | G9a inh | LMNA splice mod | miR-21 reporter | JMJD2E inh | ALDH1A1 block
CC(=O)OC1C(N2CCCCC2)c2c(ccc(/C=C/C(=O)N3CCCCC3)c2O)OC1(C)C (configuration not stated) | n | n | u | n | 7.1µM | n
CC1(C)Oc2ccc3ccc(=O)oc3c2C(N2CCCCC2)C1O (configuration not stated) | n | u | n | n | u | u
CC(NCCCOc1cccc2ccccc12)c1ccccc1 (configuration not stated) | n | 11µM | x | u | x | x
N#Cc1cccc(-c2cc(NCc3cccnc3)ncn2)c1 | n | n[0.501 µM] | n | x | x | u
Cc1onc(-c2ccccc2)c1CNS(=O)(=O)c1ccccc1[N+](=O)[O-] | n | u | x | n | n | 13µM
Cc1ccccc1CNS(=O)(=O)c1ccccc1[N+](=O)[O-] | n | n | n | n | n | u
Cc1ccc(OCC(=O)O/N=C(\N)Cc2ccc([N+](=O)[O-])cc2)cc1C | n | u | x | n | n | x
CC(=O)c1ccc(N2CCN(C(=O)c3cccs3)CC2)c(F)c1 | n | n | x | n | x | x
COc1cc(C(=S)N(C)C)ccc1O | 40µM | 6.3µM | u | n | n | 10µM
COC(=O)c1ccccc1NC(=O)C1CCN(C(=O)N2CC(C)Oc3ccccc32)CC1 (configuration not stated) | x | n | n | n | x | x
Cc1ccc(OCC(=O)Nc2ccc([N+](=O)[O-])cc2)cc1 | n | n | n | n | n | n
Cc1ccc(C(=O)NC(=S)NNC(=O)COc2ccc([N+](=O)[O-])cc2)cc1 | 71µM | 3.5µM | x | n | x | x
CCCC(=O)NC(=S)NNC(=O)c1ccc([N+](=O)[O-])cc1 | u | 3.2µM | u | n | n | 18µM
O=C(COc1ccc2ccccc2c1)NNC(=O)c1ccc([N+](=O)[O-])cc1 | n | n | n | n | n | n
CCCCCCCC(=O)NNC(=O)c1ccc([N+](=O)[O-])cc1 | n | n[0.501 µM] | n[0.0737 µM] | n | n | u
O=C(COc1ccc([N+](=O)[O-])cc1)NNC(=S)NC(=O)c1ccc(Br)cc1 | 45µM | 2.8µM | n[9.22 µM] | n | n | 8.9µM
O=C(NC(=S)NNC(=O)c1ccccc1[N+](=O)[O-])c1ccc(Br)cc1 | 79µM | 8.9µM | x | n | x | x
CC(Sc1ccccc1)C(=O)NCC(c1ccco1)N1CCCCC1 (configuration not stated) | x | n | x | x | x | x
COC(=O)C/C=C\[C@@H](C)[C@@H](CO)NS(=O)(=O)c1ccc(C)cc1 | n | x | x | x | x | u
CCCCCC(=O)NNC(=S)NC(=O)c1ccccc1[N+](=O)[O-] | n | n | n | n | u | n
CCCCCC(=O)NNC(=S)NC(=O)c1cccc([N+](=O)[O-])c1 | u | 7.9µM | u | n | n | 1.3µM
COC(=O)[C@H](COC(C)(C)C)NC(=O)O[C@@H]1C(=O)c2cc(Br)ccc2O[C@H]1c1ccc2c(c1)OCO2 | n | x | x | x | n | n
COc1ccc(C(=O)O)nc1C | 45µM | n | x | n | 14µM | x
NS(=O)(=O)c1ccc(N=Nc2c(=O)[nH]n3c(=O)c4c([nH]c23)CCCC4)cc1 | n | x | x | n | 28µM | n
O=c1[nH]n2c(=O)c3c([nH]c2c1N=Nc1cccc(Cl)c1)CCC3 | u | u | u | n | n | u
SMILES | Sfp inh | G9a inh | LMNA splice mod | miR-21 reporter | JMJD2E inh | ALDH1A1 block
COc1ccc(/C(C)=N/NC(=O)CNC(=O)C(c2ccccc2)c2ccccc2)c(OC)c1 | n | n | x | n | x | x
CCCCNC(=O)c1ccc2nc(-c3ccco3)c(-c3ccco3)nc2c1 | 32µM | 7.9µM | n | n | u | 5µM
O=C(NCCCO)c1ccc2nc(-c3ccco3)c(-c3ccco3)nc2c1 | 10µM | 7.1µM | n | n | 13µM | u
O=C(NCCO)Nc1ccc2nc(-c3ccco3)c(-c3ccco3)nc2c1 | 18µM | x | x | n | n | u
COc1ccc(C(=O)NCCCN2CCOCC2)cc1 | n | n | x | n | x | x
O=C(NCCO)Nc1ccc2nsnc2c1 | n | n | n | n | u | u
CCc1nc2ccc(C(=O)NCCc3ccco3)cc2nc1CC | n | n | x | n | x | x
COc1ccc(-c2nc3ccc(C(=O)NCCCN4CCOCC4)cc3nc2-c2ccc(OC)cc2)cc1 | 56µM | n | x | n | x | x
Cc1cc(C)c(S(=O)(=O)c2cccc(Br)c2C)c(Cl)n1 | n | n | x | n | x | x
CC12CCC3c4ccc(OCc5ccccc5)cc4CCC3C1CC(O)C2O (configuration not stated) | n | n[2.33 µM] | x | x | n | n
COc1ccc(C(=O)c2ccc(OC)c(Br)c2)cc1Br | n | u | n | n | n | 20µM
CCCCOc1ccc(C(=S)N2CCC(C(N)=O)CC2)cc1 | n | u | n | n | n | u
COc1ccc(C(=S)N2CCC(C(N)=O)CC2)cc1Br | 40µM | u | n | n | n | u
COc1cccc(CSc2nc3n(n2)C(CC(C)C)C(C(=O)Nc2ccccc2C)=C(C)N3)c1 (configuration not stated) | x | n | n | n | x | x
O=C(CCl)c1ccc2c(c1)CCN2C(=O)C1CCCCC1 | n | n | u | n | u | u
CCOc1ccccc1N1CCN(CC(=O)NC(C)c2ccccc2)CC1 (configuration not stated) | n | x | x | n | x | x
CCc1nnc2c(Nc3ccc(N(CC)CC)cc3C)nc3ccccc3n12 | x | 18µM | x | n | x | x
CCc1nnc2c(Nc3ccccc3Br)nc3ccccc3n12 | x | n | x | n | x | x
O=c1c2c(O)cc(O)cc2oc2ccc(O)c(O[C@@H]3O[C@H](CO)[C@@H](O)[C@H](O)[C@H]3O[C@H]3O[C@H](CO)[C@@H](O)[C@H](O)[C@H]3O)c12 | x | n[12.7 µM] | x | x | x | x
COc1cc(-c2oc3cc(O)cc(O)c3c(=O)c2O[C@@H]2O[C@H](CO)[C@@H](O)[C@H](O)[C@H]2O)ccc1O | n | x | x | x | x | x
O=c1c(O[C@@H]2O[C@H](CO)[C@@H](O)[C@H](O)[C@H]2O)c(-c2ccc(O)cc2)oc2cc(O)cc(O)c12 | n | x | x | x | x | x
C[C@@H]1O[C@@H](OC[C@H]2O[C@@H](Oc3c(-c4ccc(O)c(O)c4)oc4cc(O)cc(O)c4c3=O)[C@H](O)[C@@H](O)[C@@H]2O)[C@H](O)[C@H](O)[C@H]1O | n | u | n | n | 14µM | x
O=c1c(O[C@@H]2O[C@H](CO)[C@H](O)[C@H](O)[C@H]2O)c(-c2ccc(O)c(O)c2)oc2cc(O)cc(O)c12 | n | 13µM | u | n | 1.8µM | x
O=c1c(O[C@@H]2O[C@H](CO)[C@@H](O)[C@H](O)[C@H]2O)c(-c2ccc(O)c(O)c2)oc2cc(O)cc(O)c12 | n | 8.9µM | x | n | 13µM | x
O=c1c(OC2OC(CO)C(O)C(O)C2OC2OC(CO)C(O)C(O)C2OC2OC(CO)C(O)C(O)C2O)c(-c2ccc(O)c(O)c2)oc2cc(O)cc(O)c12 (configuration not stated) | n | u | x | n | 14µM | x
